For two compounds, IC50 results are on record in patent US9346798B2, “Dihydrobenzoxazine and tetrahydroquinoxaline sodium channel inhibitors” (AMGEN INC., priority 2012, dated 2016).

Protein sequences, listed by entry. Tags and fused reporters are not part of them.
UniProt Q15858, whole entry: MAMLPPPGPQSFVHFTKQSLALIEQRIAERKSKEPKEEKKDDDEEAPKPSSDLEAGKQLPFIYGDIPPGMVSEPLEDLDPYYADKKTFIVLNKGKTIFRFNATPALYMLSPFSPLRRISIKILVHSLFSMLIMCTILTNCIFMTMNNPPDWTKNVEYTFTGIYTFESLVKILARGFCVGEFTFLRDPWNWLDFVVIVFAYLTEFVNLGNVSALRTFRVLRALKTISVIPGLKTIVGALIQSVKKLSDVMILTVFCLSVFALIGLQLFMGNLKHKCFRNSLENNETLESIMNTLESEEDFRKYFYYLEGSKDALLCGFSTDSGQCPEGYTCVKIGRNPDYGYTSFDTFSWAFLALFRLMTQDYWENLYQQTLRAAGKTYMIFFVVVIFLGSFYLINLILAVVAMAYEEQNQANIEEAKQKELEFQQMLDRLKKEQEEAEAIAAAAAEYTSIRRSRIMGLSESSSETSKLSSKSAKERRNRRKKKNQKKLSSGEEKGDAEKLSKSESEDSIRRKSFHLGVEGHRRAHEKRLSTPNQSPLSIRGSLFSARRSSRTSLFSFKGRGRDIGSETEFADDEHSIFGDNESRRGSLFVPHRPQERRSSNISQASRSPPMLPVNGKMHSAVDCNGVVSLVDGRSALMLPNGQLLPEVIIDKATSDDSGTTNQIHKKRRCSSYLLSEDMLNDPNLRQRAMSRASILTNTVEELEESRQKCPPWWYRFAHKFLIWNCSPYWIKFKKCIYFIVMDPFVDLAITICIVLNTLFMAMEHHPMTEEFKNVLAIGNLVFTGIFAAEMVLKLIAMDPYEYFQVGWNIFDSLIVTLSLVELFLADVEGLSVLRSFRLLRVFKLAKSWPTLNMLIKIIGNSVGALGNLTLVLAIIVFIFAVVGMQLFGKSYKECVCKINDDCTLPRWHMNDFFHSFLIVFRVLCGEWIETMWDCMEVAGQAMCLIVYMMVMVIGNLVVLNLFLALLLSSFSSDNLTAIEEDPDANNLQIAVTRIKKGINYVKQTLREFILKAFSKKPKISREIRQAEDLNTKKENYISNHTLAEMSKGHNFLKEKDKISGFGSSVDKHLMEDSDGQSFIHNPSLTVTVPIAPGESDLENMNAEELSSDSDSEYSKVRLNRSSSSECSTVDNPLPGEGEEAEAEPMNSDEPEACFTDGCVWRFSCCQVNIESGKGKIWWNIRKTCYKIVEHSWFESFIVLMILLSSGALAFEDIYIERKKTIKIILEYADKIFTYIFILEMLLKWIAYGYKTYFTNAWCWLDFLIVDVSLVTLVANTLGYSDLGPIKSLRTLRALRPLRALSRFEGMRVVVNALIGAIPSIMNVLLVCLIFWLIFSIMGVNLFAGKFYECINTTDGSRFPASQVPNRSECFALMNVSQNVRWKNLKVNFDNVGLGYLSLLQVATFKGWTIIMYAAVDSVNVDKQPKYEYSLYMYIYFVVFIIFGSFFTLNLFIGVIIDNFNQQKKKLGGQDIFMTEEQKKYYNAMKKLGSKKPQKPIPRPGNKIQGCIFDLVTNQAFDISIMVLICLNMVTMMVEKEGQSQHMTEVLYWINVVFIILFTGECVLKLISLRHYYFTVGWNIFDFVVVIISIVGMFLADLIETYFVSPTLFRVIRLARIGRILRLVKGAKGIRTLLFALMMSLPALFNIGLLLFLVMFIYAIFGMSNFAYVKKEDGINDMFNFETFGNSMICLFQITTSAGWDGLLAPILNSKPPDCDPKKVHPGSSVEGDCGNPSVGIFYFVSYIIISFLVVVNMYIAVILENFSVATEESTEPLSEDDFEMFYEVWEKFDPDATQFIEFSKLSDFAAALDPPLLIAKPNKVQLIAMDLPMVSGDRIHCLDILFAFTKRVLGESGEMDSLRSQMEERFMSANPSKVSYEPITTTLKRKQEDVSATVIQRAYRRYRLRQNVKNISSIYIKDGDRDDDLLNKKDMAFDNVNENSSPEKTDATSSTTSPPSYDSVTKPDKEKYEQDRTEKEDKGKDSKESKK

Usually IC50 stands for the concentration at which inhibition is half-maximal. A lower IC50 goes with greater potency.

Structures are written as SMILES.

Experiment [1] deals with T1, Nav 1.7 (Homo sapiens (Human), UniProt Q15858). Kind of experiment: Nav 1.7 in vitro assay, IonWorks Quattro (IWQ) population patch-clamp. The format is cell-based. Conditions: HEK 293 cells stably transfected with Nav 1.7; 26th pulse to -20 mV. On the procedure: Nav 1.7 and Nav 1.5 In Vitro Assays
HEK 293 cells stably transfected with either Nav 1.7 or with Nav 1.5 were recorded in population patch-clamp mode with the IonWorks® Quattro automated electrophysiology system in accordance with the manufacturer's specifications (Molecular Devices, LLC, Sunnyvale, Calif.). Sodium channel currents were measured in response to a train of depolarizations that induced successively greater inactivation.
Cells were held at −110 mV for three seconds (Nav 1.7) or half a second (Nav 1.5) from a holding voltage of −15 mV, then put through a series of 26 pulses of 150 msec duration to −20 mV at a frequency of 5 Hz. Cells were then left unclamped for a period of 3 to 8 minutes while a single concentration of test compound was added. Cells were then reclamped and put through the same voltage protocol. Current at the end of the 26th pulse to −20 mV was subtracted from the peak current evoked by the 26th pulse to −20 mV to correct for leak current. Percent block was calculated for each concentration in duplicate, and IC50 curves were fitted to percent block as a function of concentration.
On the technique in general: In patch-clamp work, channel activity is measured electrically.

The target in experiment [2] is T1, Nav 1.7. Kind of experiment: Nav 1.7 in vitro PX assay, PatchXpress whole cell voltage clamp. The conditions noted are these: HEK 293 cells stably transfected with human Nav1.7; partially inactivated state (20 to 50% inactivation). The class given is cell-based. How it is done:
Nav 1.7 In Vitro PX Assay
HEK 293 cells stably transfected with human Nav1.7 were recorded in whole cell voltage clamp mode with the PatchXpress automated electrophysiology system (Molecular Devices, LLC, Sunnyvale, Calif.). Compound effects were measured on a partially inactivated state of the sodium channel. Cells were clamped to a holding potential yielding 20 to 50% inactivation. To elicit sodium current, channels were activated by pulsing to −10 mV for 20 msec. This voltage protocol was repeated at a rate of 0.1 Hz throughout the experiment. A single concentration of test compound was applied to cells for a duration of 3 minutes. Peak sodium current was measured at the end of the compound addition period to determine percent inhibition. Three to five cells were tested per concentration, and IC50 curves were fitted to percent inhibition as a function of concentration.

Consider `N#Cc1ccc(F)cc1N1CCOc2cc(S(=O)(=O)Nc3nccs3)ccc21` [Example 188, 4-(2-Cyano-5-Fluorophenyl)-N-(Thiazol-2-Yl)-3,4-Dihydro-2H-Benzo[B][1,4]Oxazine-7-Sulfonamide], for which the values for the concentration for half-maximal inhibition (IC50) in experiment [1] and in experiment [2] were 0.0753 µM and 1.22 µM, respectively.
For `O=S(=O)(Nc1nccs1)c1ccc2c(c1)OCCN2c1ccc(C(F)(F)F)cc1C1=CCNCC1` [Example 38, 4-(2-(1,2,3,6-Tetrahydropyridin-4-Yl)-4-(Trifluoromethyl)Phenyl)-N-(Thiazol-2-Yl)-3,4-Dihydro-2H-Benzo[B][1,4]Oxazine-7-Sulfonamide 2,2,2-Trifluoroacetate], in that order: 0.013 µM and 0.0794 µM.
